# Test results from patent publication US5141962A, “Amine compounds” (Roussel Uclaf, priority 1989, dated 1992).
# How the values were obtained:
# male rats = test: Antagonist effect vis-a-vis the diuretic activity of U-50488, action on diuresis; type: in vivo, rat; conditions: male rats fasted 16 h; product of Example 1 20 mg/kg SC, U-50488 5 mg/kg, combination 5 + 20 mg/kg; urine collected for one hour
# female mice = test: Antagonist effect vis-a-vis the analgesic activity of U-50488, hot plate test with mice; type: in vivo, mouse; conditions: hot plate 56° C., product of Example 1 20 mg/kg SC, U-50488 5 mg/kg SC, combination 5 + 20
smiles,measurement,setting,value
CN(C(=O)Cc1ccc(Cl)c(Cl)c1)[C@@H]1CCCC[C@H]1N1CCCC1 (relative stereo),"Volume of urine excreted in 1 hour, m ± esm",male rats,0.0098 ± 0.0003 L/kg
same,"Reaction time, m ± esm, 30 mn",female mice; 30 minutes after injection,9.6 ± 1.1 s
same,"Reaction time, m ± esm, 0 mn",female mice; initial time (0 mn),5.2 ± 0.1 s
